# Test results as given in patent EP0474580B1, “Use of 1-[3-(dimethylamino)propyl]-1-phenylphthalenes for the treatment of cerebrovascular disorders” (priority 1990, dated 1992).
# Marks after values point to notes of the source that are not given here.
# System: ischemia-induced death in bilateral carotid arterial ligation (BCAL)
# Assay: Brain ischemia-induced death in mice (bilateral carotid arterial ligation)
# Format: in vivo, ICR MICE
# Experimental: Male ICR MICE (Charles River) weighing 30 - 40 g were used after they were fasted for 1 day.
# […] Surviving mice were observed over 4 h.
smiles,measurement,setting,value
"CN(C)CCCC1(c2ccc(F)cc2)OCc2cc(C#N)ccc21 (stereo not shown) [Citalopram, citalopram]",Survival rate (%) 2 h after BCAL,"30 mg/kg,p.o., 30 min prior to ligation, 2 h after BCAL",50* %
same,Survival rate (%) 4 h after BCAL,"30 mg/kg,p.o., 30 min prior to ligation, 4 h after BCAL",43* %
same,ischemia-induced death / survival rate 2 h after ligation,"30 mg/kg, 2 h after bilateral carotid arterial ligation, vs saline",significantly prevented ischemia-induced death
same,ischemia-induced death / survival rate 4 h after ligation,"30 mg/kg, 4 h after bilateral carotid arterial ligation, vs saline",significantly prevented ischemia-induced death
